# Data taken from patent publication US20100065444A1, “PACK CONTAINING SOFT CAPSULES” (priority 2007, published 2010).
# Assay: Stability of multivitamin soft capsules in container with channel former and absorbent embedded in the inside walls, 30° C./65% RH
# Type: physicochemical
# Experimental: Multivitamin soft capsules (active-compound composition and capsule shell as described below) are introduced into a resealable container in/on the inside wall(s) of which at least one channel former is embedded, at least over part of the area, together with at least one absorbent (type: M-3006-16 Activ-Vial) in the inside walls of which a molecular sieve having a capacity of 1.92 g is embedded.
# The multivitamin soft capsules are stored at 30° C. and 65% relative humidity (RH), removed from storage after predetermined times, assessed visually with respect to their appearance and investigated analytically with respect to the amounts of active compound present.
# [1] = Multivitamin soft capsule batch GD 06 0045, 6 months
# [2] = Multivitamin soft capsule batch GD 06 0045, Start
substance,measurement,setting,value
Thiamine nitrate,amount of active compound present,[1],2.37 mg/capsule
same,"amount of active compound present, % of start",[1],99%
same,amount of active compound present,[2],2.40 mg/capsule
same,"amount of active compound present, % of start",[2],100%
